Experimental data from patent publication US8426353B2, “Process for preparing polyurea microcapsules” (Firmenich SA, priority 2008, dated 2013).

Test: LogP of the perfume ingredients
Conditions: ingredients of the perfume of Example 9 (Table 9)

Question: With `CC(=O)OC1CCCCC1C(C)(C)C` (stereo not shown) [Verdox ®, 2-Tert-butyl-1-cyclohexyl acetate] as the compound, how does the LogP read?
Answer: Its LogP is 4.42.
